# From patent publication US20220241207A1, “EXTENDED-RELEASE SOLID ORAL DOSAGE FORM COMPRISING VITAMIN B12 AND A VITAMIN B12 DEPLETING DRUG” (DSM IP ASSETS B.V., priority 2019, published 2022)
# Method: The solubilization medium was: • SIF (simulated intestinal fluid, pH=6.8, prepared according to Ph. Eur.)
# The dissolution medium was heated to 37° C. and the analyses were performed at this temperature. During the analyses, the salts were added in access to the solubilization media and left to mix for 24 h. Afterwards, the solutions were filtered, and the precipitates were investigated using ATR-IR analysis to confirm the presence of the starting material (e.g. respective Ca salt). Attenuated total reflection (ATR) is a sampling technique used in conjunction with infrared spectroscopy which enables samples to be examined directly in the solid or liquid state without further preparation. The filtered solutions were analysed for Ca^2+ ions content.
substance,measurement,value
anhydrous calcium citrate,Ca^2+ ions,0.460 mg/mL
same,Ca^2+ ions average,0.460 mg/mL
